# According to PubChem BioAssay AID1229 (Sanford-Burnham Center for Chemical Genomics, 2008):
# The list shows a part of the results, in another mix than the full data. The source made the active and inactive calls.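 The calls were made as follows: active = diaphorase activity raised at least twofold by the compound at 20 µM; inactive = activation factor below 2.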
# Experiment: compounds boosting diaphorase resazurin reduction – biochemical, uHTS, resorufin fluorescence, counter-screen for diaphorase-coupled primary assays, primary screen (AID 1229)
# Conditions: Diaphorase/resazurin coupled assay, 16 min, at 20 µM; hits give high values, 1 = vehicle wells, 0 = NADH-free wells
# Summary of the method: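 Material: Purified diaphorase enzyme from Clostridium kluyveri | Buffer or medium: 50 mM HEPES pH 7.4 with 4.542 mM MgCl2, 0.005% Tween 20 | Times: 16 min enzyme reaction, ambient temperature | Signal: Red resorufin fluorescence at 544/590 nm excitation/emission | Measure: Increased resorufin signal from activators or reducing compounds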
row,Compound,activation factor
1,CCN1CCC(Nc2cccc(F)c2)CC1,inactive: 0.8
2,CN(C)c1ccc(C(=O)NCC2(N3CCCCC3)CCCCC2)cc1,inactive: 1
3,Fc1ccccc1NC1CCN(Cc2ccccc2)CC1,inactive: 0.8
4,COc1cc(OC)cc(C(=O)NCC2(N3CCOCC3)CCCCC2)c1,inactive: 1
5,CCC(CO)(C(=O)OC1CN2CCC1CC2)c1ccccc1 (stereo not given),inactive
6,CCOc1ncccc1C(=O)NCC1(N2CCOCC2)CCCCC1,inactive
7,CC(C)(C)OC(=O)N1CCC(Nc2ccccc2)CC1,inactive: 1
8,N/C(=N\O)c1c(N)no[n+]1[O-],inactive: 1
9,O=C(OC1CN2CCC1CC2)C1c2ccccc2C=Cc2ccccc21 (stereo not given),inactive: 1
10,COc1ccc(C(=O)NCC2(N3CCOCC3)CCCCC2)cc1OC,inactive: 1
11,c1ccc(CN2CCC(Nc3ccccc3)CC2)cc1,inactive: 0.8
12,N#Cc1ccc(C(=O)NCC2(N3CCCCC3)CCCCC2)cc1,inactive: 1
13,O=C(NCC1(N2CCOCC2)CCCCC1)c1cc(=O)[nH]c2ccccc12,inactive: 1
14,COc1ccc(NC2CCN(C(=O)OC(C)(C)C)CC2)cc1,inactive
15,CN1CCN(CCOC(=O)C(O)(c2ccccc2)c2ccccc2)CC1,inactive
16,N#CC1(Nc2ccccc2)CCN(CCc2ccccc2)CC1,inactive: 1
17,O=C(NCC1(N2CCCCC2)CCCCC1)c1cccc([N+](=O)[O-])c1,inactive: 1
18,CC(C)c1ccc(NC2CCN(C(=O)OC(C)(C)C)CC2)cc1,inactive: 0.8
19,COc1ccc(CN(CCCl)CCCl)cc1Cl,inactive: 1.1
20,CN(C)c1cccc(C(=O)NCC2(N3CCCCC3)CCCCC2)c1,inactive
21,O=C(NCC1(N2CCOCC2)CCCCC1)c1cc2ccccc2o1,inactive
22,O=C(OC1CN2CCC1CC2)C1c2ccccc2Oc2ccccc21 (stereo not given),inactive: 0.8
23,CCOC(=O)N1CCC(Nc2ccc(OC)cc2)CC1,inactive: 1
24,COc1ccc(C(=O)NCC2(N3CCCCC3)CCCCC2)c(OC)c1OC,inactive: 1.1
25,COc1ccc(NC2CCN(CCc3ccccc3)CC2)c(OC)c1,inactive: 0.7
